Biological target: somatostatin subtype 2 rat receptor (rat, UniProt P30680 1-369)
Assay: cell-based or functional assay

By UniProt entry, the sequences of proteins in these tests, tags left out. Where a name states a change or a piece, a line headed by the entry shows the natural chain unless it says otherwise.
UniProt P30680: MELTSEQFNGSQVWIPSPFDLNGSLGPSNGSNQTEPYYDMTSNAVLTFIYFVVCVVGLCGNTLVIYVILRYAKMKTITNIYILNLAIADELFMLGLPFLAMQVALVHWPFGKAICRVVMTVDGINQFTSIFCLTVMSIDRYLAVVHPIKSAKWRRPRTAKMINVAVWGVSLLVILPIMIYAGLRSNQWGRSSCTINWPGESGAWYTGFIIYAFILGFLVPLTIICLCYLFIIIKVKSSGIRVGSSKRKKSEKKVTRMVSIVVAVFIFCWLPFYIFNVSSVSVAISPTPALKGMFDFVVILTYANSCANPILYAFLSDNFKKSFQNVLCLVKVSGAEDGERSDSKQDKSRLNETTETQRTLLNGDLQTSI

B1: Succinate-D-Asp-D-Ser-D-Ser-D-Ser-D-Ser-D-Ser-D-Asp-D-Ser-D-Ser-D-Ser-D-Ser-D-Ser-L-Lys-D-Tyr-D-Tyr-cyclo[L-Cys-L-Phe-D-Trp-L-Lys-L-Thr-L-Cys]-L-Thr-NH2 (peptide)
peptide: DSSSSSDSSSSSKYYCFWKTCT
modifications: N-terminal succinate (succinoyl); D-Asp 1, D-Ser 2-6, D-Asp 7, D-Ser 8-12, D-Tyr 14, D-Tyr 15, D-Trp 18; cyclo (disulfide) Cys 16-Cys 21; C-terminal amide
IC50 (nM), inhibition of GH release from primary cultures of rat pituitary cells: 0.51 nM
